Earlier results as cited in patent US6028084A, “Pyrazole derivatives, method for preparing same, and pharmaceutical compositions containing said derivatives” (Sanofi-Synthelabo, priority 1995, dated 2000).

Sequences of proteins named here, by UniProt entry; tags and fusion partners are left off.
UniProt P20272, whole entry: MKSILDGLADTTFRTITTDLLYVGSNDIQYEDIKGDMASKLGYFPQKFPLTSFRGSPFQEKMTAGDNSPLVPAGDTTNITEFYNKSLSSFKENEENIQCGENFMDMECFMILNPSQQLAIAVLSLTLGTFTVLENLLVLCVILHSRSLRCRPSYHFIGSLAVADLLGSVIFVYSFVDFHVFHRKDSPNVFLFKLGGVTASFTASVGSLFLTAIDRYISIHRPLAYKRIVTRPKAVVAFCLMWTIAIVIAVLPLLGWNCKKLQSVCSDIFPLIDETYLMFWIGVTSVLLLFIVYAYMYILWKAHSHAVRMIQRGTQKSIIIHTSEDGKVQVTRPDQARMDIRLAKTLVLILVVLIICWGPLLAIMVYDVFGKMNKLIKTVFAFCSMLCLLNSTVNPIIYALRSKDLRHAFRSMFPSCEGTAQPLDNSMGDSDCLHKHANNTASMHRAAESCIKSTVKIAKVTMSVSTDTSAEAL

Target: central cannabinoid receptors (Rattus norvegicus, UniProt P20272)
Conditions: as stated for EP-A-656 354

## Cc1c(C(=O)NN2CCCCC2)nn(-c2ccc(Cl)cc2Cl)c1-c1ccc(Cl)cc1 [SR 141 716, N-piperidino-5-(4-chlorophenyl)-1-(2,4-dichlorophenyl)-4-methylpyrazole-3-carboxamide]
  affinity for the central cannabinoid receptors: very good affinity
